Article PMC5675004 (Cancer cell, 2015)

Chains of the proteins cited; added tags and fusions are not shown. Residues count along the entry.
UniProt Q99835, 28-787 W281C: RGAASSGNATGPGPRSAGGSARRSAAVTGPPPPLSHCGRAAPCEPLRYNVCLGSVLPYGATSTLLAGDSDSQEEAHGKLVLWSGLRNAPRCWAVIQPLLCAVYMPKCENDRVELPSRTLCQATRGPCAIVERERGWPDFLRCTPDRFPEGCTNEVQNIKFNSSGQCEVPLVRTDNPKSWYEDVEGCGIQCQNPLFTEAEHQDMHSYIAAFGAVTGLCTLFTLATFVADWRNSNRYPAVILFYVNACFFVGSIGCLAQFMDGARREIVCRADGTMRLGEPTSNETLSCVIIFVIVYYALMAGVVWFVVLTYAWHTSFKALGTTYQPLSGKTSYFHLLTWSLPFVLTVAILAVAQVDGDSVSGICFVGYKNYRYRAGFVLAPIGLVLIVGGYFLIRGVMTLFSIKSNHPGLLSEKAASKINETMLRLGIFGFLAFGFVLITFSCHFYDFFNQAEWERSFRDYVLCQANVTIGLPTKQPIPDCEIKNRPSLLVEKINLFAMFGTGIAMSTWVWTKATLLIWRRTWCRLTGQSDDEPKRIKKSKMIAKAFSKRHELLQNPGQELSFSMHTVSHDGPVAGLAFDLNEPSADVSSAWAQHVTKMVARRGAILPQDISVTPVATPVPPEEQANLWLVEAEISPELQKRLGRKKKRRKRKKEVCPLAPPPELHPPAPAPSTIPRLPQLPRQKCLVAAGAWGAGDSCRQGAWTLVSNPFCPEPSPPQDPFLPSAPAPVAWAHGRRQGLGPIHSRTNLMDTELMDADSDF

Columns and labels:
SMO-W281C = SMO-W281C (Homo sapiens, UniProt Q99835, W281C); conditions: HEK-293 cells, compared with SMO-WT at similar cell surface levels
[1] = tested on: PPT CGNPs infected with SMO-W281C; assay: PPT CGNP proliferation, methyl-[3H]-thymidine incorporation; type: cell-based, mouse; conditions: 5 μM vismodegib

CS(=O)(=O)c1ccc(C(=O)Nc2ccc(Cl)c(-c3ccccn3)c2)c(Cl)c1 [vismodegib]
[3H]-vismodegib binding (SMO-W281C): impaired vismodegib binding | proliferation in the presence of vismodegib [1]: continued to proliferate at near untreated levels
